scFv variants of Ab-14 (heavy chain) against a SARS-CoV-2 spike peptide

Data: MIT Lincoln Laboratory AlphaSeq set, Engelhart et al. 2022, doi:10.1038/s41597-022-01779-4, as distributed in FLAb.

Antigen: PDVDLGDISGINAS, a 14-residue peptide of the SARS-CoV-2 spike HR2 region.

Parent: Ab-14, a human scFv built as VH, a 15-residue (Gly4Ser)3 linker, VL. Only the CDRs of the heavy chain vary.
VH: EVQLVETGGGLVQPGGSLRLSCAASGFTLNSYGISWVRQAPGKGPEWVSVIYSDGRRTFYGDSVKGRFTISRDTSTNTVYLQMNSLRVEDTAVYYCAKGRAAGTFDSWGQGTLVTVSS
VL: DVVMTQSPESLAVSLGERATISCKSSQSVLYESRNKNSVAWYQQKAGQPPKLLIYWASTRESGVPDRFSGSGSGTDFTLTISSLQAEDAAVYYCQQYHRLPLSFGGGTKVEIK

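The parent was found by panning a naive human phage display library on the peptide. Variants in AAYL49 differ from the parent at up to three CDR positions; double and triple changes were sampled at random. In AlphaSeq, yeast of one mating type display the scFv and yeast of the other type display the target. The frequency of each diploid, read from paired DNA barcodes, reflects how well the two displayed proteins bind. Scores were corrected for input abundance and mapped to Kd with protein pairs of known affinity run in the same pool. The assay was run in three technical replicates.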

Each variant is given by its three heavy chain CDRs, as the data file delimits them; those of the parent are GFTLNSYGIS, VIYSDGRRTFYGDSVK, GRAAGTFDS. Values are apparent Kd, the geometric mean of the replicates that gave a signal; lower means stronger binding. An entry "nd" has no value in the source: the pair was not observed among the diploids in any replicate. This suggests poor binding but is not conclusive. For reference, the parent read 4.4 nM as the reference entry and 13 µM (one replicate of three) as a member of this library.

nd (0 of 3 replicates): GFTLNSYGIS, VICSDGRRTFYDDSVK, YRAAGTFDS.
110 nM (3 of 3 replicates): GFTLNSYGIS, VIYSDGRRTFYGHSVK, GRMAGTFDS.
nd (0 of 3 replicates): GFTLNSYGIF, EIYSDGRRPFYGDSVK, GRAAGTFDS.
100 µM (1 of 3 replicates): GFTLNSYGIS, VIYSDGTRTFYPDSVK, GRAAGMFDS.
nd (0 of 3 replicates): GFILNSYGIS, VQYSDGRRTFYGDSVK, GAAAGTFDS.
2.7 µM (1 of 3 replicates): GFTLNSYGIS, VIYSDGRCTPYGDSVK, GRAANTFDS.
nd (0 of 3 replicates): GFTLNSYGIS, VIYSDGRPTFYGDSVK, DRAAGTFDS.
96 µM (2 of 3 replicates): GFTLNSYGIS, VIYSDGRRTFYGRSYK, GRAAGTFDS.
nd (0 of 3 replicates): GFTLNSYVIS, VIYSDGRRTFYGDSVK, GRAAGTFRW.
nd (0 of 3 replicates): GFTLCSYGIS, VIYSDGRMTFYGDSVK, GRAACTFDS.
48 nM (3 of 3 replicates): GFTLNSYGIS, IMYSDGRRTFYGDSVK, GRLAGTFDS.
16 µM (1 of 3 replicates): GFTLNVYGIS, VILSDGRRTFYGDSRK, GRAAGTFDS.
13 µM (1 of 3 replicates): GFTLNSYGIS, VIYIDGRRTFYGTSVE, GRAAGTFDS.
1.2 µM (1 of 3 replicates): GFTLNAYGAS, VIYSDGRRTFYGDSVA, GRAAGTFDS.
34 µM (2 of 3 replicates): GFTLDSYGIS, VIYSDGRKTDYGDSVK, GRAAGTFDS.
nd (0 of 3 replicates): GFTLNSYGIS, AIYSDGRRTFPGDMVK, GRAAGTFDS.
39 µM (1 of 3 replicates): GFTLNSYGIS, VIYSDGRRTQPGDSVK, GRAAGTMDS.
nd (0 of 3 replicates): MFTLNSYGIS, VIYSDGRRTFYGSSVK, GRAAGTCDS.
nd (0 of 3 replicates): GFQLNSYGIS, IIYSDGRNTFYGDSVK, GRAAGTFDS.
17 µM (1 of 3 replicates): GFTLNSYGAS, VIYSDGRRTFYGDSVK, GRGAGTFDS.
nd (0 of 3 replicates): GFTLNSFGIS, VIYSDGGRTFYGDSVK, GRAAGTFDS.
39 µM (1 of 3 replicates): GFTLNSYGIS, AIYSDGRRLFYGDSNK, GRAAGTFDS.
nd (0 of 3 replicates): GFTLNSYGIS, VIVSDGRRTFYGDSVQ, GRARGTFDS.
nd (0 of 3 replicates): GFTLNSYGIC, VIYSDGRRTFYGDSVK, DRAAGTFKS.
nd (0 of 3 replicates): GFCLNSHGIS, VIYSDGRRTFYGDSVK, GRAAGYFDS.
nd (0 of 3 replicates): GFTLNSYGIF, VIYSDGRRTHYGDGVK, GRAAGTFDS.
57 µM (2 of 3 replicates): GFTLNSYGIS, VPYSDGRRTFYGDQVK, GYAAGTFDS.
120 µM (1 of 3 replicates): GFTVNSYGIS, MIYSDGVRTFYGDSVK, GRAAGTFDS.
61 nM (3 of 3 replicates): DFTLNSYGIS, VIYSDGRRTFYGDSVK, GRATGTFDS.
12 µM (2 of 3 replicates): GSTLNSYGIS, VIYSDGRRTFFGDSVK, GRAAGTFDH.
140 nM (3 of 3 replicates): GFWLNSYGIS, VIYSDGRRTFYADSVK, GRAAGTFKS.
nd (0 of 3 replicates): GFTGNSYGIQ, VIYSDGRRTFYGDSVK, GRAAGRFDS.
52 µM (1 of 3 replicates): GFTLNSKCIS, VIYSDYRRTFYGDSVK, GRAAGTFDS.
nd (0 of 3 replicates): GFTLNSYGIS, VIYSDGFRGFYGDSVK, GRAAGTFIS.
2.4 µM (1 of 3 replicates): GFTLNSYGIS, VILSRGRRTFDGDSVK, GRAAGTFDS.
nd (0 of 3 replicates): GFTLNSYEIT, VIYSDGRRTFYGVSVK, GRAAGTFDS.
nd (0 of 3 replicates): GFTLNSYGIS, VIYSDGRRTTYGDSVK, GRAAGVFDS.
nd (0 of 3 replicates): GFTLNSYGIW, VIYSDGRRTFYGDSVL, GRAAGTFIS.
2.8 µM (1 of 3 replicates): GFTLNSYGIS, VIYSDGRCTFYGDSVK, GREAWTFDS.
57 µM (1 of 3 replicates): GFTLNSYGIS, VIYSDGRRTTYGLSVL, GRAAGTFDS.
nd (0 of 3 replicates): GFTLNSYGIS, VIYSDGRNYFYGDSVK, GRHAGTFDS.
2.9 µM (1 of 3 replicates): GFTLNSYGIT, VIGSDGRRTFNGDSVK, GRAAGTFDS.
6.0 nM (3 of 3 replicates): IHTLNSYGIS, VIYSDGRRTFYGDAVK, GRAAGTFDS.
27 µM (1 of 3 replicates): GFTLNSYGIS, VIYSVGRRTFYGDSVA, GRAAGTFLS.
16 µM (2 of 3 replicates): GFTLNSYGIS, VIYEDGRRTFKGDFVK, GRAAGTFDS.
nd (0 of 3 replicates): GFTLVSVGIS, VIYSDGRRTFHGDSVK, GRAAGTFDS.
nd (0 of 3 replicates): GFTLNSAGLS, VIYSDGKRTFYGDSVK, GRAAGTFDS.
nd (0 of 3 replicates): GFTLNSYGIS, YIYSDGRRTFYGDTVQ, GRAAGTFDS.
nd (0 of 3 replicates): GFTLNSYGIS, VDYSDGRRTFYGDLVI, GRAAGTFDS.
nd (0 of 3 replicates): GFTLNSYQIS, VIYSWGRRTFYGDSVK, GRAAMTFDS.

Excerpt, the first 8 entries:

With GFTLNSYGIS, VICSDGRRTFYDDSVK, YRAAGTFDS the result was nd (0 of 3 replicates).
With GFTLNSYGIS, VIYSDGRRTFYGHSVK, GRMAGTFDS the result was 110 nM (3 of 3 replicates).
With GFTLNSYGIF, EIYSDGRRPFYGDSVK, GRAAGTFDS the result was nd (0 of 3 replicates).
With GFTLNSYGIS, VIYSDGTRTFYPDSVK, GRAAGMFDS the result was 100 µM (1 of 3 replicates).
With GFILNSYGIS, VQYSDGRRTFYGDSVK, GAAAGTFDS the result was nd (0 of 3 replicates).
With GFTLNSYGIS, VIYSDGRCTPYGDSVK, GRAANTFDS the result was 2.7 µM (1 of 3 replicates).
With GFTLNSYGIS, VIYSDGRPTFYGDSVK, DRAAGTFDS the result was nd (0 of 3 replicates).
With GFTLNSYGIS, VIYSDGRRTFYGRSYK, GRAAGTFDS the result was 96 µM (2 of 3 replicates).

Empty control strains, which show no peptide, gave a signal in 15% of pairings with library AAYL49; the median was 11 µM and 95% of these signals were weaker than 680 nM. No background was subtracted.